Laboratory results: US9931331B2, “Pharmaceutical composition for preventing or treating cancer, containing proteasome inhibitor and loperamide as active ingredients” (priority 2013, dated 2018)

Assays:
[1] = tested on: colon cancer cell (DLD-1); assay: Cell viability (calcein-AM / ethidium homodimer-1), DLD-1; conditions: epoxomicin 40 nM alone, 24 h
Procedure: (§1) Strains of cervical cancer cell (HeLa), kidney cancer cell (Caki-1), brain tumor cell (T98G), breast cancer cell (MDA-MB 435S), and colon cancer cell (DLD-1), multiple myeloma cell (RPMI-8226), and a strain of normal breast epithelial cell (MCF-10A) were available from ATCC (American Type Culture Collection, USA). The strains of cervical cancer cell (HeLa), kidney cancer cell (Caki-1), brain tumor cell (T98G), breast cancer cell (MDA-MB 435S), and colon cancer cell (DLD-1) were cultured by using a DMEM medium including 10% fetal bovine serum (FBS), 2 mM of L-glutamin, 100 i.u./ml of penicillin, and […] of streptomycin for the culture and maintenance; multiple myeloma cell (RPMI-8226) was cultured by using a RPMI1640 medium including 10% FBS, 100 i.u./ml of penicillin, and […] of streptomycin; and the strain of normal breast epithelial cell (MCF-10A) was cultured by using a mammary epithelial growth medium (MEGM) including a bovine pituitary extract, insulin, human epidermal growth factor, hydrocortisone, and antibiotics, and the culture conditions included 37° C. and 5% CO2 in an incubator.
(§2) Then, the cells were stained by using 2 μM calcein-AM and 4 μM ethidium homodimer-1, and cell viability was measured by using a fluorescent microscope (Axiovert 200M, available from Carl Zeiss, Jena, Germany).

[2] = tested on: breast cancer cell (MDA-MB 435S); assay: Cell viability (calcein-AM / ethidium homodimer-1), MDA-MB 435S; conditions: 24 h
Procedure: as §1, §2

[3] = tested on: kidney cancer cell (Caki-1); assay: Cell viability (calcein-AM / ethidium homodimer-1), Caki-1; conditions: epoxomicin 40 nM alone, 24 h
Procedure: as §1, §2

[4] = tested on: brain tumor cell (T98G); assay: Cell viability (calcein-AM / ethidium homodimer-1), T98G; conditions: loperamide 20 μM alone, 24 h
Procedure: as §1, §2

Row | SMILES | Cell viability [1] | Cell viability ([2]; epoxomicin 7.5 nM alone) | Cell viability ([2]; epoxomicin 15 nM alone) | Cell viability [3] | Cell viability [4]
1 | CC[C@H](C)[C@H](NC(=O)[C@H]([C@@H](C)CC)N(C)C(C)=O)C(=O)N[C@H](C(=O)N[C@@H](CC(C)C)C(=O)[C@@]1(C)CO1)[C@@H](C)O [Epoxomicin] | 94.06 | 86.50 | 81.52 | 66.45 | –
2 | CN(C)C(=O)C(CCN1CCC(O)(c2ccc(Cl)cc2)CC1)(c1ccccc1)c1ccccc1 [Loperamide] | – | – | – | – | 90.40
